Measurements from patent US9368421B2, “Under-fill material and method for producing semiconductor device” (NITTO DENKO CORPORATION, priority 2011, dated 2016).

Test: Acid dissociation constant pKa of flux agent
Settings: dilute aqueous solution

## CCCCCCCC/C=C\CCCCCCCC(=O)O [Oleic acid, oleic acid]
  pKa: 5
